Our source for the EC50 values is ChEMBL document CHEMBL1136798, “Synthesis and pharmacological characterization of a series of geometrically constrained 5-HT(2A/2C) receptor ligands” (J Med Chem, 2003).

Protein sequences, listed by entry. Tags and fused reporters are not part of them.
UniProt P14842, whole entry: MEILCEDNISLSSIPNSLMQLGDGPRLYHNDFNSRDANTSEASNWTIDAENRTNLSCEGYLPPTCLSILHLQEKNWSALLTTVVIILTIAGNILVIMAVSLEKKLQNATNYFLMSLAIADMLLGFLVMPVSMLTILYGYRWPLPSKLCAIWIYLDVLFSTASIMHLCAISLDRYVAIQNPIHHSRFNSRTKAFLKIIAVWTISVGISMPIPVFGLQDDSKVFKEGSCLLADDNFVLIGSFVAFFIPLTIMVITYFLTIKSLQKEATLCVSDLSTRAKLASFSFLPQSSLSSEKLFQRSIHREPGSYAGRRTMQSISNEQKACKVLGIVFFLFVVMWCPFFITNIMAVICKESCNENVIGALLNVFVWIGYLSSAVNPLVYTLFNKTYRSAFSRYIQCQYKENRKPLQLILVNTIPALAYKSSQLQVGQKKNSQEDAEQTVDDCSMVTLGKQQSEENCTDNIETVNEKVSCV

The target in the experiment is 5-hydroxytryptamine receptor 2A (Rattus norvegicus, UniProt P14842). Put plainly: Tested for its ability to activate phospholipase C by quantification of IP3 at cloned rat 5-hydroxytryptamine 2A receptor. The gist of the method: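 Rat 5-HT2A-expressing cells at 70% confluency were labelled for 18-20 h with 1.0 µCi/mL [3H]-myo-inositol. They were pretreated for 15 min with 10 µM pargyline/10 mM LiCl, then exposed to drug for 30 min at 37 °C. Formic acid stopped the reaction. [3H]inositol phosphates were separated on Dowex-1 columns. Efficacy is expressed relative to serotonin.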

Usually EC50 stands for the concentration that produces a half-maximal response. Low readings indicate an effect from little substance, high ones a need for much substance. In turn, `CCN(CC)C(=O)[C@@H]1C=C2c3cccc4[nH]cc(c34)C[C@H]2N(C)C1` [LYSERGIDE] had an EC50 of 9.8 nM.
